According to publication PMC3388080 (PLoS ONE, 2012):
Read-outs that look alike come from different tables or passages of the source.

By UniProt entry, the sequences of proteins in these tests, tags left out.
UniProt P56719, whole entry: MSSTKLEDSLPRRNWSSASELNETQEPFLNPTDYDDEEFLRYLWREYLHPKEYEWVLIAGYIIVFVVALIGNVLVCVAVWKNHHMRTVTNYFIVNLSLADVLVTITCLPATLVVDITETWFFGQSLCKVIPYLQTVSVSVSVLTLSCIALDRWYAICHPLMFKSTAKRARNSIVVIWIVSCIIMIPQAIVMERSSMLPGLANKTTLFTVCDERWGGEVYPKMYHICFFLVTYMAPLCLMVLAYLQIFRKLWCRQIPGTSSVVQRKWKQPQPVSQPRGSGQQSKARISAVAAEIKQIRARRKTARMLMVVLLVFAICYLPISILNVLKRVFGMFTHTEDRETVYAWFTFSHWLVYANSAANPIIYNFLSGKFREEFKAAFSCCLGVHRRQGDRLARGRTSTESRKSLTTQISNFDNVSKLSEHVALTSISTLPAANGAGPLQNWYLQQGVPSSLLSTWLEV
UniProt P56718, whole entry: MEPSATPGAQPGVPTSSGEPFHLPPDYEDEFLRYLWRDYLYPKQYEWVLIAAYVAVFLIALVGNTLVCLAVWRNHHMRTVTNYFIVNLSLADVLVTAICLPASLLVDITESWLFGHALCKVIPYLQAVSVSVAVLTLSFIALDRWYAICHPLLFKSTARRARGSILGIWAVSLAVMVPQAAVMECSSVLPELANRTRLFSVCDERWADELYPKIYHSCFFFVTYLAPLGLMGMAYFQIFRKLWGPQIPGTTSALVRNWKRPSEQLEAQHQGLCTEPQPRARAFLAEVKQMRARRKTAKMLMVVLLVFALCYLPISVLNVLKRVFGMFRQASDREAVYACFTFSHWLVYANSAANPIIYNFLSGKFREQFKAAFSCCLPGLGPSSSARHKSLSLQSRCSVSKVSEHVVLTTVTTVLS

Tests used:
[1] = target: T1, rHCRTR2 (Rattus norvegicus, UniProt P56719); experiment: Inhibition of [^3H]almorexant binding to HEK293-rHCRTR2 membranes; conditions: [^3H]almorexant 0.5 nM, 37°C
T1 construct: expressed in transfected cells; host or cells: HEK293 (transient transfection, pCI-Neo vector), membrane preparation
From the text: [^3H]almorexant binding to rat HCRTR1 and HCRTR2. The rat cDNAs encoding HCRTR1 (Accession No. P56718) and HCRTR2 (Accession No. P56719) were subcloned into pCI-Neo expression vectors (Promega, Madison, WI) and used to transfect HEK293 cells (acquired commercially from ATCC-LGC, Molsheim, France) as previously described. Membrane preparations, saturation and inhibition experiments, and determination of the association and dissociation kinetic parameters of [^3H]almorexant to rHCRTR2-HEK293 cell membranes were performed at F. Hoffmann-La Roche as previously described and reported in the Materials and Methods S1.
The potencies of almorexant and of the selective HCRTR1 antagonists SB-334867 [6] and SB-408124 [34] in inhibiting [^3H]almorexant binding to HEK293-rHCRTR1 and HEK293-rHCRTR2 cell membranes are given in Table 2. Almorexant was able to displace [^3H]almorexant binding from rHCRTR1 and rHCRTR2 membranes with high affinity (Table 2). In contrast, SB-334867 and SB-408124 displaced [^3H]almorexant binding from rHCRTR1, but not from rHCRTR2, with high affinity (Table 2).

[2] = target: T2, rHCRTR1 (Rattus norvegicus, UniProt P56718); experiment: Inhibition of [^3H]almorexant binding to HEK293-rHCRTR1 membranes; conditions: [^3H]almorexant 3.4 nM, 23°C
T2 construct: expressed in transfected cells; host or cells: HEK293 (transient transfection, pCI-Neo vector), membrane preparation
From the text: The rat cDNAs encoding HCRTR1 (Accession No. P56718) and HCRTR2 (Accession No. P56719) were subcloned into pCI-Neo expression vectors (Promega, Madison, WI) and used to transfect HEK293 cells (acquired commercially from ATCC-LGC, Molsheim, France) as previously described.

[3] = target: T2, rHCRTR1; design: method as in PMID 14691055; conditions: cited from earlier work

Cc1nc2ccc(NC(=O)Nc3ccnc4cccnc34)cc2o1.Cl [SB-334867, 1-(2-methylbenzoxazol-6-yl)-3-[1], [5]naphthyridin-4-yl-urea hydrochloride]
Ki [1]: 2390 ± 81 nM | Ki [2]: 58.4 ± 2.9 nM | Ki [3]: 38.7 nM
